## Measured affinities in a library of Ab-14 light chain variants

The measurements come from Li et al. 2023 (doi:10.1038/s41467-023-39022-2) through the FLAb antibody collection.

Target: peptide PDVDLGDISGINAS, taken from heptad repeat 2 (HR2) of SARS-CoV-2 spike.

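The starting antibody came from a phage panning campaign against this peptide. Designed CDR sequences, proposed from the first random library and measured here. Their group label is 14L_Ctrl (Ctrl: baseline library sampled from a position-specific scoring matrix, with some repeated check sequences). The scFvs were displayed on barcoded MATa yeast, the peptide on MATalpha yeast. Binding brings cells together so that they mate, and sequencing counts the barcode pairs among the diploids. A regression on co-assayed BCL2-family reference pairs converts the normalised counts of each replicate to an apparent Kd. Each pool was mated in six replicate cultures.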

Parent scFv Ab-14: VH joined to VL by three GGGGS repeats. Changes lie in the light chain CDRs alone.
VH: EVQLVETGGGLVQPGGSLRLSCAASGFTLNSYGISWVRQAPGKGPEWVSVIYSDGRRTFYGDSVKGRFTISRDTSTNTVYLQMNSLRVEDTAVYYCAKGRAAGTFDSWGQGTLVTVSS
VL: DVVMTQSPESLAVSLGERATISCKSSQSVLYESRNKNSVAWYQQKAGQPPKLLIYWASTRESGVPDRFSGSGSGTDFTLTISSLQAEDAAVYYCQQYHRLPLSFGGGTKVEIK

Substitutions are numbered in sequence along the VL above, starting at 1 (not Kabat). Values are log10 of the apparent Kd in nM; lower means stronger binding. A pair that was not seen in that replicate is written "nd"; this usually means weak binding, but a binder can also be missed. Values of this round are not directly comparable with the first-round values of the same sequences. Background: pairings of all light chain designs with three empty control strains gave a value in 4% of cases (median 2.64, 5th percentile 1.59). Values in that range, when seen in few replicates, are hard to tell from nonspecific mating. The control count says in how many pairings with the empty strains this scFv gave a signal. In the paper, a design with two or fewer of six values counts as a poor binder. Of ten entries with the parent sequence, four were seen in most replicates (averages 0.34 to 2.37), three in one and three in none, so single entries are noisy.

The variant Q95T+L100T gave nd, 2.25, nd, nd, nd, nd (controls 1 of 18).
The variant S26N+R34T+K36Q+W56S+S62M+Y97P+L100M gave nd, nd, nd, nd, nd, 2.07 (controls 0 of 18).
The variant S25L+R34T+K36L gave -0.02, 0.14, 0.28, 0.14, -0.15, 0.40 (controls 0 of 18).
The variant L30T gave 1.74, 1.33, 1.68, 1.67, 1.77, 2.69 (controls 1 of 18).
The variant S25I+S26A+L30V gave 1.58, 0.83, 1.37, 1.37, 0.98, 1.76 (controls 0 of 18).
The variant K24M+Y31L+P101L gave nd, nd, nd, nd, nd, nd (controls 0 of 18).
The variant Q27V+E32D+R34E+S38P+R60H gave nd, nd, nd, nd, nd, nd (controls 0 of 18).
The variant L30M+E61V gave 2.42, 1.88, 2.18, 2.01, 1.32, 2.43 (controls 1 of 18).
The variant S25K+R34C+W56M+S62M gave 0.77, 1.41, 1.97, 1.70, nd, 2.48 (controls 0 of 18).
The variant Q27K+E32C+S58N+S62R gave nd, nd, nd, nd, nd, nd (controls 0 of 18).
The variant Y31N+E61L+P101H gave nd, nd, nd, nd, nd, nd (controls 0 of 18).
The variant W56D+A57S gave 0.13, 0.28, 0.34, 0.37, -0.17, 0.08 (controls 0 of 18).
The variant K24S+Q27Y+S38N+W56F+Q96S gave 2.27, nd, nd, 3.40, 1.93, nd (controls 0 of 18).
The variant R34E+R99A gave 1.04, 0.39, 0.81, 0.62, 0.53, 0.52 (controls 1 of 18).
The variant S26K+R34T+W56Y gave 2.19, 1.98, 1.90, 2.18, 1.33, 2.14 (controls 2 of 18).
The variant W56T+S58Q+E61N gave 2.15, 2.31, 3.16, 1.31, 1.64, 2.76 (controls 1 of 18).
The variant S25V+S28H+W56E+S103C gave -0.16, -0.10, 0.03, -0.24, 0.07, -0.13 (controls 1 of 18).
The variant S25I+N35L+Y97Q gave 2.47, nd, 2.21, nd, 1.56, nd (controls 0 of 18).
The variant K24H+S26V+V39I+W56K+S62G+R99M gave nd, 1.85, nd, nd, nd, nd (controls 0 of 18).
The variant V29P+L30Y+W56A+Q95A+S103F gave 1.06, 1.04, 1.15, 1.29, 1.77, 1.93 (controls 0 of 18).
The variant L102V gave nd, nd, nd, nd, nd, 3.32 (controls 0 of 18).
The variant S25F+Y31T+Q96E gave nd, 0.86, 2.42, nd, 2.09, 1.19 (controls 0 of 18).
The variant S25I+Y31K+R34E+W56D+P101V gave 0.65, 0.60, 0.61, 0.59, 0.31, 0.41 (controls 0 of 18).
The variant V29E+Q95G+H98V gave nd, nd, nd, nd, nd, nd (controls 0 of 18).
The variant S25I+N37S gave 2.12, 1.87, 1.39, 2.37, 1.87, 1.90 (controls 1 of 18).
The variant K24L+S38H+W56N gave 0.97, 1.18, 0.57, 0.62, 1.07, 0.73 (controls 0 of 18).
The variant S25V+Q27L+T59Q gave 0.44, 0.40, 0.03, 0.21, 0.37, 0.71 (controls 0 of 18).
The variant V29W+W56H+S62K gave 0.34, 0.42, 0.16, 0.48, 0.47, 0.42 (controls 4 of 18).
The variant S26Q+K36F+R99M gave 2.67, nd, 2.40, nd, nd, nd (controls 0 of 18).
The variant S26K+S28V+R34C+V39I+W56K gave 1.96, nd, 1.68, nd, nd, 2.26 (controls 0 of 18).
The variant E32G+R60H gave nd, nd, 0.72, nd, nd, nd (controls 2 of 18).
The variant S25I+S28H+R34P+W56D gave 0.17, 0.18, 0.27, -0.04, 0.22, 0.07 (controls 3 of 18).
The variant Y31E+S62D gave nd, 2.08, 0.78, 1.01, 1.52, 2.85 (controls 1 of 18).
The variant L30P+N35L+K36H+W56H+A57K+S62Y gave 1.87, 2.34, 3.14, 1.54, 1.98, 2.40 (controls 1 of 18).
The variant S25M+Y31M+W56A+S103P gave nd, nd, nd, nd, nd, nd (controls 0 of 18).

Excerpt, the first 2 entries:

With Q95T+L100T the result was nd, 2.25, nd, nd, nd, nd (controls 1 of 18).
With S26N+R34T+K36Q+W56S+S62M+Y97P+L100M the result was nd, nd, nd, nd, nd, 2.07 (controls 0 of 18).